Results on 1 molecule are retold here after paper PMC5667506 (2015).

No end group written: not given here.

One experiment deals with T1, p40-Y4ERh metallopeptide (also: metal complex: dirhodium at Glu4).
T1 chain: APTE(dirhodium)SPPPPP
The experiment in a line: ITC. In general terms: Isothermal titration calorimetry measures the heat released or taken up as one component is titrated into another.

A further experiment deals with T2, p40-A1ERh metallopeptide (also: metal complex: dirhodium at Glu1).
T2 chain: E(dirhodium)PTYSPPPPP
The experiment is described as follows: ITC.

As usually defined, the Kd is the concentration at which binding is half-saturated. A low value points to tighter binding.

B1: Abl SH3 (protein)
chain: PSENDPNLFVALYDFVASGDNTLSITKGEKLRVLGYNHNGEWCEAQTKNGQGWVPSNYITPVNSLEK
Consider B1, for which the Kd came to 7.19 µM with p40-Y4ERh metallopeptide and 0.022 µM with p40-A1ERh metallopeptide.
